{"sequences": {"note": "Sequences of proteins named here, by UniProt entry; tags and fusion partners are left off. A change or cut given only in a name is not applied to a line headed by its entry.", "UniProt P02675": "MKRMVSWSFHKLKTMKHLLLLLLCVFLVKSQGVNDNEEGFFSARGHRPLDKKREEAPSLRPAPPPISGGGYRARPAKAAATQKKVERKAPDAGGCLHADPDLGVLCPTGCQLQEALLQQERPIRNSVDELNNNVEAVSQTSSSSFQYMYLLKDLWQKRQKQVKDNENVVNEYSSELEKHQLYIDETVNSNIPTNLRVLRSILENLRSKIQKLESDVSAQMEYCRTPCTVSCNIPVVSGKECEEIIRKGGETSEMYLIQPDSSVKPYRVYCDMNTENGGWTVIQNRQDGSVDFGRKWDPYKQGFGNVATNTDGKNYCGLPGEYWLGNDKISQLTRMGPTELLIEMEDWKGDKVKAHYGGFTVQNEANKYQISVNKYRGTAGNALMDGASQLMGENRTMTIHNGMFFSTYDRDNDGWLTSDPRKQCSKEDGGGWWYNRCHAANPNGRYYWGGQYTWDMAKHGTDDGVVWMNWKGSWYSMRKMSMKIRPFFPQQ"}, "source": "PubChem BioAssay AID720633", "about": "(The Scripps Research Institute Molecular Screening Center, 2013)", "molecular_target": "Fibrinogen beta chain (Homo sapiens) (UniProt P02675)", "assay": "fibrin DD(E) probe displacement, second cyclic peptide – biochemical, fluorescence polarization, human fibrin, counter-screen for fibrin DD(E)-Tn7 binding project, confirmation (AID 720633);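 further: 0% = median of compound sample wells and 100% = excess unlabeled Aha-Tn7 peptide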", "settings": "TRITC-Tn7 probe displacement, at 8.3 µM, stronger effect = higher value", "note": "This is a selection; strong and weak results do not stand in their true shares. Active and inactive are the calls of the source.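 How the source made its calls: active means inhibition above the cutoff, the mean of compounds lying between the control bounds plus 3 SD of those compounds (cut at about 17% in these data); inactive means the rest.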", "data": [{"compound": "Nc1cccc2c([As](=O)(O)O)cccc12", "values": [{"measurement": "inhibition", "value": "inactive: 15%"}]}]}
